Common to all, as to assay type: cell-based
For test [1], the target named is Muscarinic acetylcholine receptor M5 (Homo sapiens, UniProt P08912). The experiment in a line: Displacement of [3H]NMS from human M5 muscarinic receptor expressed in CHO-K1 cells. (In general: Displacement assays read how much labelled ligand stays bound in the presence of the test substance.)
Test [2] concerns the target Muscarinic acetylcholine receptor M4 (Homo sapiens, UniProt P08173). Put plainly: Displacement of [3H]NMS from human M4 muscarinic receptor expressed in CHO-K1 cells.
Test [3] deals with Muscarinic acetylcholine receptor M2 (Homo sapiens, UniProt P08172). The experiment in a line: Displacement of [3H]NMS from human M2 muscarinic receptor expressed in CHO-K1 cells.

By UniProt entry, the sequences of proteins in these tests, tags left out.
UniProt P08912, whole entry: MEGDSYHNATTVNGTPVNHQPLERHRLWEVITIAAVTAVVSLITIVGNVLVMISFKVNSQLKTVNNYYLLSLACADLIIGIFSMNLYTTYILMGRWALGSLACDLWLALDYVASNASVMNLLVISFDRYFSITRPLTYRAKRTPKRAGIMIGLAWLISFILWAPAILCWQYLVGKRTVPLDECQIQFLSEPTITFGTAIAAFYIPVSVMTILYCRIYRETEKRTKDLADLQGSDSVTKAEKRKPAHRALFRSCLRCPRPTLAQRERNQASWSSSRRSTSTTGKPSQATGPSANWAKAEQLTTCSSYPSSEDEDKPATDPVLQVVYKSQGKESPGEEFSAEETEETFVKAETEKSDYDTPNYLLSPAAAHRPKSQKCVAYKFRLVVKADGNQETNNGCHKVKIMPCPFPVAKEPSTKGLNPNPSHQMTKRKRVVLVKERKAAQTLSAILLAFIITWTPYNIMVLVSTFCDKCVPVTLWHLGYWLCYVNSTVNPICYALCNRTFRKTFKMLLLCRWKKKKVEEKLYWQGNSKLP
UniProt P08173, whole entry: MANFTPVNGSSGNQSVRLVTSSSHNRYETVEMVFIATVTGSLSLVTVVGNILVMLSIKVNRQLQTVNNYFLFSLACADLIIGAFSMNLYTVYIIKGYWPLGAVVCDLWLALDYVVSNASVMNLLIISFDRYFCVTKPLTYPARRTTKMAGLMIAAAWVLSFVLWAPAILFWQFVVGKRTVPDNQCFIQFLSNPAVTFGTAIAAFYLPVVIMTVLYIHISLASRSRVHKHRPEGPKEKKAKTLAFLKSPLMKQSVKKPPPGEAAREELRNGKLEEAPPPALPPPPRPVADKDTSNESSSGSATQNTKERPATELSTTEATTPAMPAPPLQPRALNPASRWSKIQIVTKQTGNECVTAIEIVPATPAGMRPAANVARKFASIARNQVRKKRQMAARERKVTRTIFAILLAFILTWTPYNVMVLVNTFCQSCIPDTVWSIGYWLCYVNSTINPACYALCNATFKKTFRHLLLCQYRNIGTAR
UniProt P08172, whole entry: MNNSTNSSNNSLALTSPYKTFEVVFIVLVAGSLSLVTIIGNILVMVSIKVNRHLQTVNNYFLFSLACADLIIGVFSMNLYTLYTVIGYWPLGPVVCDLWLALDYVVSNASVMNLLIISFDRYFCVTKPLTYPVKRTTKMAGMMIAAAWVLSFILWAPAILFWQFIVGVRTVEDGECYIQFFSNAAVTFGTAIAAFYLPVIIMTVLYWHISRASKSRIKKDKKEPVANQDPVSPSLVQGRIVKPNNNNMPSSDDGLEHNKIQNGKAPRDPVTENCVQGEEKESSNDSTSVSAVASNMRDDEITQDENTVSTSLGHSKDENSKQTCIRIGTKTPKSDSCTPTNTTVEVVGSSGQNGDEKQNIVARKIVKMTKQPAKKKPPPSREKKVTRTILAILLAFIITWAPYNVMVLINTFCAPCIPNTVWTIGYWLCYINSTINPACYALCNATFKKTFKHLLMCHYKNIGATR

What is called Ki is the equilibrium dissociation constant of an inhibitor or competing ligand from its target.

With `CN1[C@@H]2C[C@@H](OC(=O)[C@H](CO)c3ccccc3)C[C@H]1[C@@H]1O[C@@H]12` [SCOPOLAMINE], the values for the Ki in test [1], in test [2] and in test [3] were 0.0176 µM, 0.0369 µM and 0.0095 µM, respectively.

The record behind these values is ChEMBL document CHEMBL2311283, “Structural modifications to tetrahydropyridine-3-carboxylate esters en route to the discovery of M5-preferring muscarinic receptor orthosteric antagonists” (J Med Chem, 2013).
